Experimental data from patent publication US20220175820A1, “DEXTRAN SULFATE FOR INFLAMMATORY DERMATOSES” (PIERRE FABRE DERMO-COSMETIQUE, priority 2019, published 2022).

Legend:
CASP14: caspase 14 = assay: RT-qPCR gene expression in normal human keratinocytes: CASP14; assay type: cell-based; conditions: dextran sulfate from Welding GMBH & Co, 4000-8000 Da, 2 mg/ml, 48 h
Method: (§1) The effects of this compound were assessed via the RT-qPCR technique with the analysis of 12 target genes chosen for their importance in keratinocyte differentiation, antimicrobial defence and hydration. Calcium chloride (tested at 1.5 mM) is used as the reference compound (physiological agent inducing terminal epidermal differentiation). The cells are then collected for analysis of target expression (mRNA) by real-time PCR. Total RNAs were extracted with TriPure Isolation Reagent® according to the supplier's instructions (Roche Life Science, Meylan, France). They were assayed with the Bioanalyser 2100 (Agilent Technologies, Les Ulis, France). The mRNAs were reverse transcribed into complementary DNA with oligo(dT) and Transcriptor Reverse Transcriptase. PCR was performed in the LightCycler® System according to the supplier's instructions (Roche). The PCR mix used is SYBR green I. The results were analyzed with Microsoft Excel®. The relative quantity is calculated for each gene by normalizing with two reference genes, ribosomal protein L13A (RPL13A) and TATA box binding protein (TBP).

CDSN : corneodesmosin = assay: RT-qPCR gene expression in normal human keratinocytes: CDSN; assay type: cell-based; conditions: dextran sulfate from Welding GMBH & Co, 4000-8000 Da, 2 mg/ml, 48 h
Method: as §1

[1] = tested on: SULT2B1: cholesterol sulfotransferase; assay: RT-qPCR gene expression in normal human keratinocytes: SULT2B1; assay type: cell-based; conditions: dextran sulfate from Welding GMBH & Co, 4000-8000 Da, 2 mg/ml, 48 h
Method: as §1

[2] = tested on: FABP5: epidermal fatty acid binding protein; assay: RT-qPCR gene expression in normal human keratinocytes: FABP5; assay type: cell-based; conditions: dextran sulfate from Welding GMBH & Co, 4000-8000 Da, 2 mg/ml, 48 h
Method: as §1

TGM1: transglutaminase 1 = assay: RT-qPCR gene expression in normal human keratinocytes: TGM1; assay type: cell-based; conditions: dextran sulfate from Welding GMBH & Co, 4000-8000 Da, 2 mg/ml, 48 h
Method: as §1

[3] = in water and saline solutions; cited from earlier work
KLK7: type 7 kallikrein = assay: RT-qPCR gene expression in normal human keratinocytes: KLK7; assay type: cell-based; conditions: dextran sulfate from Welding GMBH & Co, 4000-8000 Da, 2 mg/ml, 48 h
Method: as §1

CLDN4: claudin 4 = assay: RT-qPCR gene expression in normal human keratinocytes: CLDN4; assay type: cell-based; conditions: dextran sulfate from Welding GMBH & Co, 4000-8000 Da, 2 mg/ml, 48 h
Method: as §1

DEFB4A: β-defensin 2 = assay: RT-qPCR gene expression in normal human keratinocytes: DEFB4A; assay type: cell-based; conditions: dextran sulfate from Welding GMBH & Co, 4000-8000 Da, 2 mg/ml, 48 h
Method: as §1

[4] = tested on: DEGS2: sphingolipid C4-hydroxylase/delta-4 desaturase; assay: RT-qPCR gene expression in normal human keratinocytes: DEGS2; assay type: cell-based; conditions: dextran sulfate from Welding GMBH & Co, 4000-8000 Da, 2 mg/ml, 48 h
Method: as §1

FLG: filaggrin = assay: RT-qPCR gene expression in normal human keratinocytes: FLG; assay type: cell-based; conditions: dextran sulfate from Welding GMBH & Co, 4000-8000 Da, 2 mg/ml, 48 h
Method: as §1

Sodium dextran sulphate [Dextran sulfate]
CASP14 Mean RQ (relative quantity) (CASP14: caspase 14): 23.8
CDSN Mean RQ (relative quantity) (CDSN : corneodesmosin): 8.0
SULT2B1 Mean RQ (relative quantity) [1]: 41.4
FABP5 Mean RQ (relative quantity) [2]: 25.4
TGM1 Mean RQ (relative quantity) (TGM1: transglutaminase 1): 27.0
solubility [3]: good solubility
KLK7 Mean RQ (relative quantity) (KLK7: type 7 kallikrein): 96.0
CLDN4 Mean RQ (relative quantity) (CLDN4: claudin 4): 9.2
DEFB4A Mean RQ (relative quantity) (DEFB4A: β-defensin 2): 41.8
DEGS2 Mean RQ (relative quantity) [4]: 63.8
FLG Mean RQ (relative quantity) (FLG: filaggrin): 81.2
